Laboratory results taken from PubChem BioAssay AID727 (The Scripps Research Institute Molecular Screening Center, 2007).
The list shows a part of the results, in another mix than the full data. Calls of active or inactive are those of the source. Rule as the data show it: active = inhibition above about 19%; inactive = the rest.

Chains of the proteins cited; added tags and fusions are not shown.
UniProt Q05397, whole entry, looked up: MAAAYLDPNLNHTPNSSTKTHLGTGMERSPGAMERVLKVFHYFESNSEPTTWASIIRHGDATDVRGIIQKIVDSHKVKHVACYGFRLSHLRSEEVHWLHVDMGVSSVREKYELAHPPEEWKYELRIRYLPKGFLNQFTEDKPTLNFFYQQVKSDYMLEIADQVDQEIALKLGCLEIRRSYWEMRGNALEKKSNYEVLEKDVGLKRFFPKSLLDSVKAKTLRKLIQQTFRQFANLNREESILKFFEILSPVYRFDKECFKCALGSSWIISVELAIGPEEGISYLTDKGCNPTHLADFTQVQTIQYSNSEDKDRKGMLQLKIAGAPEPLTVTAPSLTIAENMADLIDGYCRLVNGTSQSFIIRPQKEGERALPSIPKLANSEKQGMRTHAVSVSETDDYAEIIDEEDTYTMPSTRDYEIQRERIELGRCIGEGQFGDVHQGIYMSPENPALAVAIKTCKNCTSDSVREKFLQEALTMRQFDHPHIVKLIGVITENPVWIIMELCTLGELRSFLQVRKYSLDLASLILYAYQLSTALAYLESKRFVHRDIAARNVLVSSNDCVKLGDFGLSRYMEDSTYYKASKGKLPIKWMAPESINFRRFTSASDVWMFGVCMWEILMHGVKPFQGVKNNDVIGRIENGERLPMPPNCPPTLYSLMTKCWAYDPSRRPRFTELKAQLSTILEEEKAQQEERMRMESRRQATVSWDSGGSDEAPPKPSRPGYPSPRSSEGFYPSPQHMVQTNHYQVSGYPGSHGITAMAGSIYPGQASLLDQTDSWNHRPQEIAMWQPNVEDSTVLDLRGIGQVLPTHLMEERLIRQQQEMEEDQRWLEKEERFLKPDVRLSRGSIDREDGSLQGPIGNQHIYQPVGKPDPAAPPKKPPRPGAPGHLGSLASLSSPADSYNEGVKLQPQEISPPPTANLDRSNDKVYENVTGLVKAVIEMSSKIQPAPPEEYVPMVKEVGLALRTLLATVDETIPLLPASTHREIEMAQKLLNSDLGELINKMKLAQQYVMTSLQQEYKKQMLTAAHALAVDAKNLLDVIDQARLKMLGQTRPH

Target: Focal adhesion kinase 1 (Homo sapiens) (UniProt Q05397)
Assay: human PTK2 enzyme activity blockers – biochemical, primary screen (AID 727);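 also: 0% = DMSO and 100% = reference compound high control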
Details: biochemical FAK kinase activity assay; active compounds read high;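 tested at 7 µM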

SMILES | inhibition
CCC(C)N(CC(C)C)C(=S)SC(NC(C)=O)C(Cl)(Cl)Cl (stereo not drawn) | inactive: 0.91%
COP1(=S)c2c(C)nn(CCC#N)c2N=C(c2ccc(F)cc2)N1C (stereo not drawn) | inactive: -3.74%
O=C(COc1ccccc1)OC1CN2CCC1CC2 (stereo not drawn) | inactive: 0.63%
O=C(OC1CN2CCC1CC2)C12CC3CC(CC(C3)C1)C2 (stereo not drawn) | inactive: -0.01%
ClCCSc1nnc(-c2cccnc2)o1 | inactive: 1.32%
CCN(CC)C(=S)SC(NC=O)C(Cl)(Cl)Cl (stereo not drawn) | inactive: -4.23%
CCOP1(=S)c2c(C)nn(CCC#N)c2N=C(c2ccc(F)cc2)N1C (stereo not drawn) | inactive: 4.21%
O=[N+]([O-])c1ccc2c(c1)nnn2O | inactive: -1.14%
CCOP1(=S)c2c(C)nn(CCC#N)c2N=C(c2ccccc2F)N1C (stereo not drawn) | inactive: -0.07%
Cc1cccc(OCC(=O)OC2CN3CCC2CC3)c1 (stereo not drawn) | inactive: 0.11%
CC1(CBr)Cn2c(nc3ccccc3c2=O)S1 (stereo not drawn) | inactive: -0.33%
O=P1(Nc2ccccn2)COc2ccccc2OC1 | inactive: 0.69%
Clc1n[nH]nc1-c1nn[nH][15n]1 | inactive: -0.96%
O=P1(Nc2ncccn2)COc2ccccc2OC1 | inactive: -4.72%
O=P1(Nc2ccc(Br)cn2)COc2ccccc2OC1 | inactive: 0.54%
Cc1ccc(OCC(=O)OC2CN3CCC2CC3)cc1 (stereo not drawn) | inactive: -4.45%
Cc1nn(-c2ccccc2)c2c1P(=O)(N1CCOCC1)N(C)C(c1ccccc1)=N2 (stereo not drawn) | inactive: -1.36%

SMILES | inhibition
O=C(OC1CN2CCC1CC2)c1cccc(Cl)c1 (stereo not drawn) | inactive: 1.34%
O=P(Nc1nccs1)(c1ccccc1)c1ccccc1 | inactive: -4.79%
c1nnnn1CCn1cnnn1 | inactive: -3.48%
O=P1(Nc2nc3ccc(Cl)cc3s2)COc2ccccc2O1 (stereo not drawn) | inactive: 2.61%
CCC(=O)N1C2C3N(C(=O)CC)C1C1N(C(=O)CC)C(C(N1C(=O)CC)N3C(=O)CC)N2C(=O)CC | inactive: 1.13%
COC(=O)c1cc2c(s1)N=C(c1ccccc1)N(C)P2(=O)N1CCOCC1 (stereo not drawn) | inactive: -6.98%
CCOC(=O)NC(Sc1ccccc1)C(Cl)(Cl)Cl (stereo not drawn) | inactive: 1.82%
CCOP(=O)(Nc1ccccc1)OCC | inactive: -0.03%
Oc1ccccc1CNc1ccccn1 | inactive: 0.6%
Cc1c2non([O-])c-2c(C)[n+](=O)[n+]1[O-] | inactive: -5.23%
CC(C)CC(=O)NC(Sc1ccc(Cl)cc1)C(Cl)(Cl)Cl (stereo not drawn) | inactive: -0.45%
CN1CCCC(OC(=O)C(c2ccccc2)c2ccccc2)C1 (stereo not drawn) | inactive: 1.38%
CC1CCN(C(=O)Oc2c(Cl)cc(Cl)c3cccnc23)CC1 | inactive: -3.71%
CCc1nc2c(n1)c1c(non1O)c1c2no[n+]1[O-] | inactive: -1.34%
CC(=O)N1C2C3N(C(C)=O)C1C1N(C(C)=O)C(C(N1C(C)=O)N3C(C)=O)N2C(C)=O | inactive: -1.21%
O=[N+]([O-])c1cccc2n[nH]nc12 | inactive: 1.56%
